Measurements: IntAct's records for PubMed 31515488

B1: PHD finger protein 21A (Homo sapiens), Q96BD5 (parent)
chain: MELQTLQEALKVEIQVHQKLVAQMKQDPQNADLKKQLHELQAKITALSEKQKRVVEQLRKNLIVKQEQPDKFQIQPLPQSENKLQTAQQQPLQQLQQQQQYHHHHAQQSAAASPNLTASQKTVTTASMITTKTLPLVLKAATATMPASVVGQRPTIAMVTAINSQKAVLSTDVQNTPVNLQTSSKVTGPGAEAVQIVAKNTVTLVQATPPQPIKVPQFIPPPRLTPRPNFLPQVRPKPVAQNNIPIAPAPPPMLAAPQLIQRPVMLTKFTPTTLPTSQNSIHPVRVVNGQTATIAKTFPMAQLTSIVIATPGTRLAGPQTVQLSKPSLEKQTVKSHTETDEKQTESRTITPPAAPKPKREENPQKLAFMVSLGLVTHDHLEEIQSKRQERKRRTTANPVYSGAVFEPERKKSAVTYLNSTMHPGTRKRGRPPKYNAVLGFGALTPTSPQSSHPDSPENEKTETTFTFPAPVQPVSLPSPTSTDGDIHEDFCSVCRKSGQLLMCDTCSRVYHLDCLDPPLKTIPKGMWICPRCQDQMLKKEEAIPWPGTLAIVHSYIAYKAAKEEEKQKLLKWSSDLKQEREQLEQKVKQLSNSISKCMEMKNTILARQKEMHSSLEKVKQLIRLIHGIDLSKPVDSEATVGAISNGPDCTPPANAATSTPAPSPSSQSCTANCNQGEETK
B2: RAC-alpha serine/threonine-protein kinase (Homo sapiens), P31749-1 (parent)
chain: MSDVAIVKEGWLHKRGEYIKTWRPRYFLLKNDGTFIGYKERPQDVDQREAPLNNFSVAQCQLMKTERPRPNTFIIRCLQWTTVIERTFHVETPEEREEWTTAIQTVADGLKKQEEEEMDFRSGSPSDNSGAEEMEVSLAKPKHRVTMNEFEYLKLLGKGTFGKVILVKEKATGRYYAMKILKKEVIVAKDEVAHTLTENRVLQNSRHPFLTALKYSFQTHDRLCFVMEYANGGELFFHLSRERVFSEDRARFYGAEIVSALDYLHSEKNVVYRDLKLENLMLDKDGHIKITDFGLCKEGIKDGATMKTFCGTPEYLAPEVLEDNDYGRAVDWWGLGVVMYEMMCGRLPFYNQDHEKLFELILMEEIRFPRTLGPEAKSLLSGLLKKDPKQRLGGGSEDAKEIMQHRFFAGIVWQHVYEKKLSPPFKPQVTSETDTRYFDEEFTAQMITITPPDQDDSMECVDSERRPHFPQFSYSASGTA

Variants of: B1
Conditions: with nup62_human NUP62, P37198

| Variant | effect of a mutation on the interaction |
| --- | --- |
| R347H | with no effect |

Variants of: B1
Conditions: with fhl3_human FHL3, Q13643

| Variant | effect of a mutation on the interaction |
| --- | --- |
| R347H | with no effect |

Variants of: B1
Conditions: with traf1_human TRAF1, Q13077

| Variant | effect of a mutation on the interaction |
| --- | --- |
| R347H | with no effect |

Variants of: B2
Conditions: with tcl1a_human TCL1A

| Variant | effect of a mutation on the interaction |
| --- | --- |
| MSDVAIVKEGWLHKRGKYIKTWRPRYFLLKNDGTFIGYKERPQDVDQREAPLNNFSVAQCQLMKTERPRPNTFIIRCLQWTTVIERTFHVETPEEREEWTTAIQTVADGLKKQEEEEMDFRSGSPSDNSGAEEMEVSLAKPKHRVTMNEFEYLKLLGKGTFGKVILVKEKATGRYYAMKILKKEVIVAKDEVAHTLTENRVLQNSRHPFLTALKYSFQTHDRLCFVMEYANGGELFFHLSRERVFSEDRARFYGAEIVSALDYLHSEKNVVYRDLKLENLMLDKDGHIKITDFGLCKEGIKDGATMKTFCGTPEYLAPEVLEDNDYGRAVDWWGLGVVMYEMMCGRLPFYNQDHEKLFELILMEEIRFPRTLGPEAKSLLSGLLKKDPKQRLGGGSEDAKEIMQHRFFAGIVWQHVYEKKLSPPFKPQVTSETDTRYFDEEFTAQMITITPPDQDDSMECVDSERRPHFPQFSYSASGTA [E17K] | disrupting interaction strength |
| MSDVAIVKEGWLHKRGEYIKTWRPRYFLLKNDGTLIGYKERPQDVDQREAPLNNFSVAQCQLMKTERPRPNTFIIRCLQWTTVIERTFHVETPEEREEWTTAIQTVADGLKKQEEEEMDFRSGSPSDNSGAEEMEVSLAKPKHRVTMNEFEYLKLLGKGTFGKVILVKEKATGRYYAMKILKKEVIVAKDEVAHTLTENRVLQNSRHPFLTALKYSFQTHDRLCFVMEYANGGELFFHLSRERVFSEDRARFYGAEIVSALDYLHSEKNVVYRDLKLENLMLDKDGHIKITDFGLCKEGIKDGATMKTFCGTPEYLAPEVLEDNDYGRAVDWWGLGVVMYEMMCGRLPFYNQDHEKLFELILMEEIRFPRTLGPEAKSLLSGLLKKDPKQRLGGGSEDAKEIMQHRFFAGIVWQHVYEKKLSPPFKPQVTSETDTRYFDEEFTAQMITITPPDQDDSMECVDSERRPHFPQFSYSASGTA [F35L] | with no effect |
| MSDVAIVKEGWLHKRGEYIKTWRPRYFLLKNDGTFIGYKERPQDVDQRKAPLNNFSVAQCQLMKTERPRPNTFIIRCLQWTTVIERTFHVETPEEREEWTTAIQTVADGLKKQEEEEMDFRSGSPSDNSGAEEMEVSLAKPKHRVTMNEFEYLKLLGKGTFGKVILVKEKATGRYYAMKILKKEVIVAKDEVAHTLTENRVLQNSRHPFLTALKYSFQTHDRLCFVMEYANGGELFFHLSRERVFSEDRARFYGAEIVSALDYLHSEKNVVYRDLKLENLMLDKDGHIKITDFGLCKEGIKDGATMKTFCGTPEYLAPEVLEDNDYGRAVDWWGLGVVMYEMMCGRLPFYNQDHEKLFELILMEEIRFPRTLGPEAKSLLSGLLKKDPKQRLGGGSEDAKEIMQHRFFAGIVWQHVYEKKLSPPFKPQVTSETDTRYFDEEFTAQMITITPPDQDDSMECVDSERRPHFPQFSYSASGTA [E49K] | with no effect |
| MSDVAIVKEGWLHKRGEYIKTWRPRYFLLKNDGTFIGYKERPQDVDQREAPRNNFSVAQCQLMKTERPRPNTFIIRCLQWTTVIERTFHVETPEEREEWTTAIQTVADGLKKQEEEEMDFRSGSPSDNSGAEEMEVSLAKPKHRVTMNEFEYLKLLGKGTFGKVILVKEKATGRYYAMKILKKEVIVAKDEVAHTLTENRVLQNSRHPFLTALKYSFQTHDRLCFVMEYANGGELFFHLSRERVFSEDRARFYGAEIVSALDYLHSEKNVVYRDLKLENLMLDKDGHIKITDFGLCKEGIKDGATMKTFCGTPEYLAPEVLEDNDYGRAVDWWGLGVVMYEMMCGRLPFYNQDHEKLFELILMEEIRFPRTLGPEAKSLLSGLLKKDPKQRLGGGSEDAKEIMQHRFFAGIVWQHVYEKKLSPPFKPQVTSETDTRYFDEEFTAQMITITPPDQDDSMECVDSERRPHFPQFSYSASGTA [L52R] | disrupting interaction strength |
| MSDVAIVKEGWLHKRGEYIKTWRPRYFLLKNDGTFIGYKERPQDVDQREAPLNNFSVAQCQLMKTERPRPNTFIIRCLKWTTVIERTFHVETPEEREEWTTAIQTVADGLKKQEEEEMDFRSGSPSDNSGAEEMEVSLAKPKHRVTMNEFEYLKLLGKGTFGKVILVKEKATGRYYAMKILKKEVIVAKDEVAHTLTENRVLQNSRHPFLTALKYSFQTHDRLCFVMEYANGGELFFHLSRERVFSEDRARFYGAEIVSALDYLHSEKNVVYRDLKLENLMLDKDGHIKITDFGLCKEGIKDGATMKTFCGTPEYLAPEVLEDNDYGRAVDWWGLGVVMYEMMCGRLPFYNQDHEKLFELILMEEIRFPRTLGPEAKSLLSGLLKKDPKQRLGGGSEDAKEIMQHRFFAGIVWQHVYEKKLSPPFKPQVTSETDTRYFDEEFTAQMITITPPDQDDSMECVDSERRPHFPQFSYSASGTA [Q79K] | disrupting interaction strength |
| MSDVAIVKEGWLHKRGEYIKTWRPRYFLLKNDGTFIGYKERPQDVDQREAPLNNFSVAQCQLMKTERPRPNTFIIRCLQWTTVIERTFHVETPEEREEWTTAIQTVADGLKKQEEEEMDFRSGSPSDNSGAEEMEVSLAKPKHRVTMNEFEYPKLLGKGTFGKVILVKEKATGRYYAMKILKKEVIVAKDEVAHTLTENRVLQNSRHPFLTALKYSFQTHDRLCFVMEYANGGELFFHLSRERVFSEDRARFYGAEIVSALDYLHSEKNVVYRDLKLENLMLDKDGHIKITDFGLCKEGIKDGATMKTFCGTPEYLAPEVLEDNDYGRAVDWWGLGVVMYEMMCGRLPFYNQDHEKLFELILMEEIRFPRTLGPEAKSLLSGLLKKDPKQRLGGGSEDAKEIMQHRFFAGIVWQHVYEKKLSPPFKPQVTSETDTRYFDEEFTAQMITITPPDQDDSMECVDSERRPHFPQFSYSASGTA [L153P] | disrupting interaction strength |
